From patent US20050192261A1, “Methods and reagents for the treatment of immunoinflammatory disorders” (priority 2003, published 2005)

Tested on: TNFα secretion in white blood cells from human buffy coat stimulated with phorbol 12-myristate 13-acetate and ionomycin
Test: TNFα secretion assay
Conditions: prednisolone 0 μM; cetrizine HCl r5-r13: 0,0.2,0.4,0.8,1.6,3.2,6.4,13,26 μM

Cl.Cl.O=C(O)COCCN1CCN(C(c2ccccc2)c2ccc(Cl)cc2)CC1 (stereo not shown) [Cetrizine HCl]
inhibition of TNFα secretion: 2.4
